Results as given in ChEMBL document CHEMBL1135556, “alpha-bromoacetophenone derivatives as neutral protein tyrosine phosphatase inhibitors: structure-Activity relationship” (Bioorg Med Chem Lett, 2002).

Assays:
[1] = molecular target: T1, Tyrosine-protein phosphatase non-receptor type 1 (Homo sapiens) (UniProt P18031); test: Ratio between dissociation constant and First-order rate constant (Ki / K inact) was determined
T1 sequence (whole entry): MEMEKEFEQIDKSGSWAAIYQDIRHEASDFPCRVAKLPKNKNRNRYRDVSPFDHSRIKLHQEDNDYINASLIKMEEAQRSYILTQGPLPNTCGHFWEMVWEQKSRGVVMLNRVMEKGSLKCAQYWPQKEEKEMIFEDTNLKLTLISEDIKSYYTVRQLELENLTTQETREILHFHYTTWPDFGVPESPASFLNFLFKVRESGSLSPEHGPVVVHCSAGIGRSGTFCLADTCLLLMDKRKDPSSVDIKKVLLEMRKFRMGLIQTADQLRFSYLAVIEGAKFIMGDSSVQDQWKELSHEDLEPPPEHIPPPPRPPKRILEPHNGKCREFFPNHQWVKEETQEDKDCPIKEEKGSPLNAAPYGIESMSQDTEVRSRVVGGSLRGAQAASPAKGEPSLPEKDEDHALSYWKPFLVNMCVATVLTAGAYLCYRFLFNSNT

[2] = molecular target: T1, Tyrosine-protein phosphatase non-receptor type 1 (Homo sapiens); test: First-order rate constant (K inact) for conversion of the ExI complex (Protein-tyrosine phosphatase 1B -inhibitor complex) into the covalent adduct, EI was determined using PNP as substrate

Compound | Ratio [1] | kinact [2]
O=C(CBr)c1ccc([N+](=O)[O-])cc1 | 14800 M⁻¹ min⁻¹ | 2.9 min⁻¹
COc1ccc(C(=O)CBr)cc1 | 18000 M⁻¹ min⁻¹ | 2.4 min⁻¹
